This is a selection; strong and weak results do not stand in their true shares. The source made the active and inactive calls.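 How the source made its calls: active means inhibition above the screen mean inhibition plus 3 SD, computed separately per campaign (cut at about 18% in these data); inactive means the rest.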
Tested on: Fam108B (ABHD17B) serine hydrolase [Mus musculus]
Assay: inhibition of Fam108B (ABHD17B) hydrolase – biochemical, fluorescence polarization, counter-screen for RBBP9 inhibitor project, primary screen (AID 1947);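 further: inhibitors lower polarization as less probe binds the enzyme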
Conditions: recombinant Fam108B, FP-Rh probe fluorescence polarization; at 9.51 µM; active compounds read high

SMILES | inhibition
CC(C)C(=O)NC(Sc1ccccc1)C(Cl)(Cl)Cl (configuration not stated) | inactive: 4.35%
O=P(Nc1nccs1)(c1ccccc1)c1ccccc1 | inactive: -1.36%
CC(=O)Nc1ccc([As](=O)(O)O)c(O)c1 | inactive: -0.6%
CC(=O)Nc1ccc(Oc2c([N+](=O)[O-])cc([N+](=O)[O-])cc2[N+](=O)[O-])cc1 | inactive: 3.45%
C[C@H]1OP(=O)(Oc2ccccc2)C[C@@H]2O[C@@H]21 (some centres not stated) | inactive: 5.01%
C[C@@H]1C=CCP(=O)(Oc2ccccc2)O1 (some centres not stated) | inactive: -2.68%
CC(=O)c1ccc(N2CC2c2ccncc2)cc1 (configuration not stated) | inactive: -6.55%
CC(C)(C)C(=O)NC(Sc1ccccc1)C(Cl)(Cl)Cl (configuration not stated) | inactive: -1.65%
O=P1(Nc2nc3ccc(Cl)cc3s2)COc2ccccc2O1 (configuration not stated) | inactive: 3.47%
CCOc1ccc(C2=NCC(CBr)S2)cc1 (configuration not stated) | inactive: 3.5%
Cc1ccccc1OP(=O)(Nc1ccccn1)Oc1ccccc1C | inactive: -5.75%
CN(C)C(=O)Oc1noc2ccccc12 | inactive: -0.13%
O=C(OC1CN2CCC1CC2)c1ccccc1 (configuration not stated) | inactive: -3.75%
CCC(=O)N1C2C3N(C(=O)CC)C1C1N(C(=O)CC)C(C(N1C(=O)CC)N3C(=O)CC)N2C(=O)CC | inactive: -1.53%
COC(=O)c1cc2c(s1)N=C(c1ccccc1)N(C)P2(=O)N1CCOCC1 (configuration not stated) | inactive: 2.09%
CC(=O)NC(SC(=S)N(CC(C)C)CC(C)C)C(Cl)(Cl)Cl (configuration not stated) | inactive: -2.96%
Cc1ccc(OP(=O)(Nc2ccccn2)Oc2ccc(C)cc2)cc1 | inactive: -1.16%
c1ccc(-c2nn[nH]n2)c(-c2nn[nH]n2)c1 | inactive: 4.5%
Cc1ccc(NP(=O)(Oc2cccc(C)c2)Oc2cccc(C)c2)nc1 | inactive: 3.97%
CCOC(=O)NC(Sc1ccccc1)C(Cl)(Cl)Cl (configuration not stated) | inactive: 1.69%
CCNC(=S)/N=C(\N)N[N+](=O)[O-] | inactive: 1.64%
O=C(NC1CCS(=O)(=O)C1)NP(=S)(Oc1ccccc1)Oc1ccccc1 (configuration not stated) | inactive: 0.99%
